## Experimental logP (octanol/water) values from OPERA 2.9

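OPERA's authors assembled the values from existing databases and did not measure them anew. The files give a single number for a compound and property, which may rest on several reports. Method and conditions are not stated for these values. Where a salt, mixture or single isomer is drawn, the source does not say that exactly this form was tested. Unmarked limits or estimates from the upstream databases cannot be ruled out.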

The octanol-water partition coefficient is given as log10; larger values mean a more lipophilic compound.

| logP (octanol/water) | compound |
|---|---|
| 1.6 | O=C1CCCC(=O)C1C(=O)c1ccc(C(F)(F)F)cc1[N+](=O)[O-] |
| 0.524 | CC(C)(N)CO.Cc1ccc(S(=O)(=O)O)cc1 |
| -1.48 | O=C(O)c1cc(=O)n(CCO)c(=O)[nH]1 |
| 0.45 | NNC(O)=Nc1ccccc1Cl |
| -0.51 | OC[C@H]1O[C@H](O[C@]2(CCl)O[C@H](CCl)[C@@H](O)[C@@H]2O)[C@H](O)[C@@H](O)[C@H]1Cl |
| 3.4 | Clc1ccc2c(c1)C(N1CCNCC1)=Nc1ccccc1O2 |
| -2.19 | C[N+](C)(C)C1CCCCC1.[OH-] |
| -3.4 | Cc1cc(S(=O)(=O)[O-])ccc1/N=N/c1c(O)ccc(/N=N/c2ccccc2C(=O)[O-])c1[O-].Cc1cc(S(=O)(=O)[O-])ccc1/N=N/c1c(O)ccc(/N=N/c2ccccc2C(=O)[O-])c1[O-].[Cr+3].[Na+].[Na+].[Na+] |
| -2.2 | O=S(=O)(O)CCN1CCOCC1 |
| 1.17 | CC[N+](CC)(CC)CCC(O)(c1ccccc1)C1CCCCC1 (configuration not stated) |
| 4.63 | CCCCCCCCCCCN |
| -0.399 | CC(C)N(c1nn(C)/c(=N\N=C2C=CC(=[N+](C)C)C=C2)s1)C(C)C.[Cl-].[Cl-].[Cl-].[Zn+2] |
| 0.96 | Nc1ncnc2sccc12 |
| 3.59 | CC(=O)Oc1cc(C)c(OC(C)=O)c2ccccc12 |
| 5 | C=C[C@]1(C)C[C@@H](OC(=O)CS[C@@H]2C[C@H]3CC[C@@H](C2)N3C)C2(C)[C@H](C)CC[C@]3(CCC(=O)[C@@H]23)[C@@H](C)[C@@H]1O |
| 1.2 | Cc1nn(-c2ccccc2)c(=O)[c-]1/N=N/c1cc(S(C)(=O)=O)c([N+](=O)[O-])cc1[O-].Cc1nn(-c2ccccc2)c(=O)[c-]1/N=N/c1cc(S(C)(=O)=O)c([N+](=O)[O-])cc1[O-].[Cr+3].[Na+] |
| -2.5 | [Cr+2].[Cr+2].[NH-]c1ccc2c([O-])c(/N=N/c3cc([N+](=O)[O-])cc(S(=O)(=O)[O-])c3[O-])c(S(=O)(=O)[O-])cc2c1/N=N\c1cc(S(=O)(=O)[O-])cc(C(=O)[O-])c1[O-].[Na+].[Na+].[Na+].[Na+] |
| -0.6 | COc1n[nH]c(=O)n1C |
| 1 | COc1cc2nc(N3CCN(C(=O)C4CCCO4)CC3)nc(N)c2cc1OC (configuration not stated) |
| 1.2 | COc1ccc2c(c1)C(=O)OC(=O)C2(C)C |
| -0.979 | COc1nc(Nc2ccccc2)nc(Nc2ccc(/C=C/c3ccc(Nc4nc(Nc5ccccc5)nc(OC)n4)cc3S(=O)(=O)[O-])c(S(=O)(=O)[O-])c2)n1.[Na+].[Na+] |
| 7.14 | Clc1cc(Cl)c(Cl)c(-c2c(Cl)c(Cl)cc(Cl)c2Cl)c1 |
| -6 | CCn1c(O)c(/N=N/c2cc(Nc3nc(Cl)nc(Nc4ccc(S(=O)(=O)CCOS(=O)(=O)[O-])cc4)n3)ccc2S(=O)(=O)[O-])c(C)c(C(N)=O)c1=O.[Na+].[Na+] |
| -2.22 | CC[N+](C)(CC)c1ccccc1.[I-] |
| 3.08 | C[C@H](CCC(=O)O)[C@H]1CC[C@H]2[C@@H]3C[C@H](O)[C@@H]4C[C@H](O)CC[C@]4(C)[C@H]3CC[C@]12C |
| -5.4 | Nc1c(/N=N/c2ccc(S(=O)(=O)CCOS(=O)(=O)[O-])cc2)cc(S(=O)(=O)[O-])c(N)c1/N=N/c1ccc(S(=O)(=O)CCOS(=O)(=O)[O-])cc1.[Na+].[Na+].[Na+] |
| 1.82 | c1cnn2cccc2c1 |
| 2.8 | Cc1cc(O)c(Cl)c(C)c1Cl |
| 2.6 | CCCCNc1cc(C(=O)O)cc(S(N)(=O)=O)c1Oc1ccccc1 |
| 3.17 | CC(C)COC(=O)C(C)C |
| -0.6 | O=C(OCC1OC(n2ccc(=O)cc2O)C(OC(=O)c2ccccc2)C1OC(=O)c1ccccc1)c1ccccc1 (configuration not stated) |
| 0.16 | Cc1ccncn1 |
| 8.565 | CCCCCCCCCCC[C@@H](C[C@@H]1OC(=O)[C@H]1CCCCCC)OC(=O)[C@H](CC(C)C)NC=O |
| 1 | CC(C)NCC(O)c1cc(O)cc(O)c1 (configuration not stated) |
| -0.92 | CNCC[N@@](C)CCN |
| 1.586 | CCOc1ccc(C)cc1/N=N/c1ccc(/N=N/c2cccc(S(=O)(=O)[O-])c2)c2ccccc12.[Na+] |
| -3.5 | [N-]=[N+]=C1C=Cc2c(cccc2S(=O)(=O)[O-])C1=O.[Na+] |
| 8.3 | C[Si](C)(C)O[Si](C)(C)O[Si](C)(C)O[Si](C)(C)O[Si](C)(C)O[Si](C)(C)O[Si](C)(C)O[Si](C)(C)O[Si](C)(C)C |
| -0.3 | S=C([S-])N(Cc1ccccc1)Cc1ccccc1.[Na+] |
| 2.89 | OCCCCCc1ccccc1 |
| 3.11 | CCCCCCCC/C=C\CCCCCCCCN |
| 1.55 | CCC(C)(C)OC |
| 1.05 | CN(C)Cc1ccc(C(=O)OCn2[nH]cc3c(=O)ncnc2-3)cc1 |

Again, the 3 entries with the lowest logP (octanol/water):

| compound | logP (octanol/water) |
|---|---|
| CCn1c(O)c(/N=N/c2cc(Nc3nc(Cl)nc(Nc4ccc(S(=O)(=O)CCOS(=O)(=O)[O-])cc4)n3)ccc2S(=O)(=O)[O-])c(C)c(C(N)=O)c1=O.[Na+].[Na+] | -6 |
| Nc1c(/N=N/c2ccc(S(=O)(=O)CCOS(=O)(=O)[O-])cc2)cc(S(=O)(=O)[O-])c(N)c1/N=N/c1ccc(S(=O)(=O)CCOS(=O)(=O)[O-])cc1.[Na+].[Na+].[Na+] | -5.4 |
| [N-]=[N+]=C1C=Cc2c(cccc2S(=O)(=O)[O-])C1=O.[Na+] | -3.5 |

From the experimental data distributed with OPERA 2.9.